This assay deals with T1, CECR2 bromodomain (Homo sapiens, UniProt Q9BXF3).
T1 construct: A construct encoding amino acids 424–538 of the human CECR2-BRD-containing protein; GST (N, cleaved yes); made in house; host or cells: E. coli BL21(DE3) pLysS
Briefly: Isothermal titration calorimetry, wild-type CECR2-BRD. The conditions noted are these: ITC, 5°C, 20 mM sodium phosphate pH 7.0, 150 mM NaCl, 1 mM TCEP, mean ± SD of triplicate, non-binding runs in duplicate. On the technique in general: Isothermal titration calorimetry measures the heat released or taken up as one component is titrated into another.

By UniProt entry, the sequences of proteins in these tests, tags left out. Residues count along the entry.
UniProt Q9BXF3, 424-538: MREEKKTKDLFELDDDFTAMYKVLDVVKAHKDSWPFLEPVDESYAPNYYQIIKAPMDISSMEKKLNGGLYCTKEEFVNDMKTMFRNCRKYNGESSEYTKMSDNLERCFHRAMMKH

Results on one substance are retold here after publication doi:10.1101/2024.12.09.627393 (bioRxiv, 2024).

Take “TYETFKSIMKK-NH2 [RelAK310 (305–315), unmodified RelA peptide residues 305–315, reference compound]”: the KD result was “No Binding”.
